For one test, the target named is human 5-HT2AR (Homo sapiens, UniProt P28223). As to the kind of experiment: radioligand binding (NIMH PDSP). The following applies: read-out: Ki 5-HT2AR; recombinant, stably expressed human receptor; clemizole analogues.
The target of a further test is human 5-HT2BR (Homo sapiens, UniProt P41595). As to the kind of experiment: radioligand binding (NIMH PDSP). As to conditions: read-out: Ki 5-HT2BR; recombinant, stably expressed human receptor; clemizole analogues.
A further test deals with human 5-HT2CR (Homo sapiens, UniProt P28335). As to the kind of experiment: radioligand binding (NIMH PDSP). The following applies: read-out: Ki 5-HT2CR; recombinant, stably expressed human receptor; clemizole analogues.
The test system of a further test is human 5-HT2R. As to the kind of experiment: radioligand binding (NIMH PDSP), any 5-HT2R subtype. As to conditions: 5-HT2AR, 5-HT2BR, 5-HT2CR.

Sequences of proteins named here, by UniProt entry; tags and fusion partners are left off. Residues count along the entry.
UniProt P28223, whole entry: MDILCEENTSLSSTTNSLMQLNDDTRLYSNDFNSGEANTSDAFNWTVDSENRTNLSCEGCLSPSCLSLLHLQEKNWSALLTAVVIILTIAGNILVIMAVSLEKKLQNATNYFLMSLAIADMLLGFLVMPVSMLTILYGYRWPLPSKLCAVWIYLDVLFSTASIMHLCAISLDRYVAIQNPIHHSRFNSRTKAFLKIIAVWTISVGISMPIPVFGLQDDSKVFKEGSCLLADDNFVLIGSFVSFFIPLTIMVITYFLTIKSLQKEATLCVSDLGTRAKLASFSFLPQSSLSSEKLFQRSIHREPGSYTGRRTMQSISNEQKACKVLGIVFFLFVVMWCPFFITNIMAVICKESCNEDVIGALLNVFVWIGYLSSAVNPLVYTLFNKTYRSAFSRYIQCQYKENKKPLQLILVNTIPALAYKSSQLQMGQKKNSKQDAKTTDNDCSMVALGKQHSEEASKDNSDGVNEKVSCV
UniProt P41595, whole entry: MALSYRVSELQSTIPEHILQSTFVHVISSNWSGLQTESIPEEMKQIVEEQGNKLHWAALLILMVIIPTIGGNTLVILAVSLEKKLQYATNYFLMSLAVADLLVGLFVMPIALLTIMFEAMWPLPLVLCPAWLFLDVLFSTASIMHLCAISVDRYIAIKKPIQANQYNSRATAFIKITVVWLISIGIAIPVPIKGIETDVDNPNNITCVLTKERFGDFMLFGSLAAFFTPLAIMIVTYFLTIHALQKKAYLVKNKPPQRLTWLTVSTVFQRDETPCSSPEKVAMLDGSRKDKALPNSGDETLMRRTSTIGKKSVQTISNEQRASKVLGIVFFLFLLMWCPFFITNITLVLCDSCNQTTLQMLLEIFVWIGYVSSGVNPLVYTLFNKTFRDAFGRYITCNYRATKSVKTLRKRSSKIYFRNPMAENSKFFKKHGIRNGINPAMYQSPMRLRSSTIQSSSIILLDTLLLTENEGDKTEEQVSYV
UniProt P28335, 33-458 limits assumed: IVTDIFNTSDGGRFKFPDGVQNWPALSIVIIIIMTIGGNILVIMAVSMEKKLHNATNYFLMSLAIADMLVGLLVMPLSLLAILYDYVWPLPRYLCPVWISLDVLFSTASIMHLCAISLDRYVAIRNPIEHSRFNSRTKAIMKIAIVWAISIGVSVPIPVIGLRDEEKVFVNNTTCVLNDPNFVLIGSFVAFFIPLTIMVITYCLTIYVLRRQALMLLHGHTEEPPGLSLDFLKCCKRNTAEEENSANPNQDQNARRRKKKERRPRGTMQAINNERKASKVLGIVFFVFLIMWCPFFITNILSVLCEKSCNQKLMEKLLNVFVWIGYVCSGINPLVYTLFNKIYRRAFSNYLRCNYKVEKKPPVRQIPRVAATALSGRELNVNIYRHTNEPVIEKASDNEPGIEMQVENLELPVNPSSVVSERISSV

The structures appear in SMILES notation.

What is called Ki is the dissociation constant of the complex between target and ligand, obtained from inhibition or displacement. With `N#Cc1cccc(Cn2c(CN3CCCC3)nc3ccccc32)c1`, the Ki at human 5-HT2AR, on human 5-HT2BR and at human 5-HT2CR was more than 10 µM throughout. In addition, in the test on human 5-HT2R, the “binding to any human 5-HT2R” value is given as “no significant binding”.

The values are drawn from publication PMC6798786 (Brain Communications, 2019).
